{"source": "patent US9701711B2", "about": "“Modulators of protease activated receptors” (THE UNIVERSITY OF QUEENSLAND, priority 2010, dated 2017)", "biological_target": "T1, PAR2 (Homo sapiens, UniProt P55085)", "T1 sequence (P55085 26-397)": "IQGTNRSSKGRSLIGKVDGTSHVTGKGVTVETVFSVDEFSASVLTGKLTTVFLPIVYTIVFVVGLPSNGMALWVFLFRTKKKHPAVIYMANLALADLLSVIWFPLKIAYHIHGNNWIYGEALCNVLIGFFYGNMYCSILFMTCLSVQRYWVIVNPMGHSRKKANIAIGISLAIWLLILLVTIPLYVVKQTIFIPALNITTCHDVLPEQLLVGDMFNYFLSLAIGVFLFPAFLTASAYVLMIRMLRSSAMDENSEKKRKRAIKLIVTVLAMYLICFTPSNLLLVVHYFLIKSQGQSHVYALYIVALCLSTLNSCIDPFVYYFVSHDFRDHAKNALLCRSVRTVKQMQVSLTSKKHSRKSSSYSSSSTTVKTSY", "assay": "PAR2 agonist inhibition (antagonism) by intracellular Ca2+ release in HT29 cells", "assay_type": "cell-based", "design": "Agonists of Ca^2+ release in HT29 cells; endogenous in cells; host or cells: HT29 (human cell line, cultured per ATCC information)", "details": "30 min pre-incubation, then PAR2 agonist (1 μM 2f-LIGRLO-NH2)", "text": "The ability of the compounds of the present invention to activate PAR2 may be assessed via calcium mobilisation assays. It is appreciated that compounds that activate the release of intracellular calcium from one type of cell are agonists or partial agonists, while those that inhibit such release may be antagonists. […] The general assay protocols may vary slightly depending on the chosen cell line. In general, during cell culture passage, cell dissociation solution (CDS, Sigma Aldrich) is used to replace trypsin to dissociate cells from surface. Lipopolysaccharide (LPS) and trypsin are purchased from Sigma Aldrich. […] ELISA sets are purchased from BD Pharmingen (San Jose, Calif.) and cytokine array kits are purchased from RayBiotecho (Norcross, Ga.).\nCells are seeded overnight in 96-well black walled, clear bottomed, plate at approximately 2×10^4 to 4×10^5 cells per well. […] The cells are then washed twice with HBSS and transferred to a Polarstar spectrotluorimeter (BMG, Durham N.C.). […]\nThe cells were then treated with 1 μM of the PAR2 agonist 2f-LIGRLO-NH2 (FIG. 2A. n=5) or 100 nM Trypsin (FIG. 2B, n=1). […] Net changes in fluorescence were calculated as a percentage relative to the maximum response given 1 μM 2f-LIGRLO-NH2 or 100 nM Trypsin. Changes in fluorescence (% response) were plotted against logarithmic compound concentrations. […]"}
{"smiles": "CC[C@H](C)[C@H](NC(=O)[C@H](CC1CCCCC1)NC(=O)c1cc(N)no1)C(=O)N1CCC2(C=Cc3ccccc32)CC1", "note": "[Compound 42, 5-(3-amino-isoxazoyl)-Cha-Ile-spiro[indene-1,4′-piperidine]]", "values": [{"measurement": "IC50", "result": 1200, "unit": "nM"}]}
